# Experimental data: PubChem BioAssay AID1007 (NMMLSC, 2008)
# By UniProt entry, the sequences of proteins in these tests, tags left out.
# UniProt Q07817, whole entry, looked up: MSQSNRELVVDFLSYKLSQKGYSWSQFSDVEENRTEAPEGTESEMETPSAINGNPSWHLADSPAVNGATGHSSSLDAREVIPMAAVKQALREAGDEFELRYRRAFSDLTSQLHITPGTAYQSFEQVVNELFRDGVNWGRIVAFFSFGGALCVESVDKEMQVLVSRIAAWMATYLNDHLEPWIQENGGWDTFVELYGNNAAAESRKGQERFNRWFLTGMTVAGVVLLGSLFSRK
# This is a selection; strong and weak results do not stand in their true shares. Activity calls are given as the source filed them. No stated cut-off is given here; in the data, active means inhibition above about 40%.
# Molecular target: Bcl-2-like protein 1 (Homo sapiens) (UniProt Q07817)
# Assay: Bcl-XL/Bim peptide interaction blockers – biochemical, multiplexed, bead flow cytometry, human Bcl-XL, primary screen (AID 1007)
# Settings: Bim peptide-Bcl-XL binding, fluorescence, at 10 µM, active compounds read high
row,SMILES,inhibition
1,COc1ccc(C2=NCC(CBr)S2)cc1 (centres undefined),inactive: -1%
2,O=[N+]([O-])c1cccc2n[nH]nc12,inactive: -8%
3,CC(=O)N1C2C3N(C(C)=O)C1C1N(C(C)=O)C(C(N1C(C)=O)N3C(C)=O)N2C(C)=O,inactive: 0%
4,Cc1ccc(NP(=O)(Oc2ccccc2)Oc2ccccc2)nc1,inactive: 0%
5,CCc1nc2c(n1)c1c(non1O)c1c2no[n+]1[O-],inactive: 31%
6,O=[N+]([O-])c1cc([N+](=O)[O-])c(CCNc2ccccc2)c([N+](=O)[O-])c1,inactive: 0%
7,CCN(/C(=N/P(=O)(N1CCOCC1)N1CCOCC1)N1CCOCC1)c1ccc(OC)cc1,inactive: -1%
8,CC(C)=N/N=C(\N)N[N+](=O)[O-],inactive: -7%
9,CN(C)C(=O)OCCc1n(C)cc[n+]1C,inactive: -10%
10,CC1CCN(C(=O)Oc2c(Cl)cc(Cl)c3cccnc23)CC1,inactive: -2%
11,O=[N+]([O-])c1ncn(CCn2ncnc2[N+](=O)[O-])n1,inactive: -3%
12,CCOP(=O)(Nc1ccccc1)OCC,inactive: 0%
13,Cc1cc(SC(NC(=O)c2ccc(F)cc2)C(Cl)(Cl)Cl)ncn1 (centres undefined),inactive: -15%
14,CCN(N=Nc1nonc1N)c1nonc1N,inactive: -6%
15,NC(=O)c1cc([N+](=O)[O-])cc([N+](=O)[O-])c1N,inactive: -4%
16,Cc1ccc(N/C(=N/P(=O)(N2CCOCC2)N2CCOCC2)N2CCOCC2)cc1,inactive: -1%
17,COc1ccccc1OP(=O)(Nc1ccc(C)cn1)Oc1ccccc1OC,inactive: 3%
18,Clc1ccc(Cl)c(NC2=NCC(CBr)S2)c1 (centres undefined),inactive: -1%
19,CN1CCCC(OC(=O)C(c2ccccc2)c2ccccc2)C1 (centres undefined),inactive: -1%
20,CC(C)CC(=O)NC(Sc1ccc(Cl)cc1)C(Cl)(Cl)Cl (centres undefined),inactive: -5%
21,Oc1ccccc1CNc1ccccn1,inactive: -11%
22,Cc1c2non([O-])c-2c(C)[n+](=O)[n+]1[O-],inactive: 2%
23,O=C(NC(Sc1ccncn1)C(Cl)(Cl)Cl)c1ccccc1 (centres undefined),inactive: -4%
24,O=P1(Nc2nc3ccc(Cl)cc3s2)COc2ccccc2O1 (centres undefined),inactive: -3%
25,CCOc1ccc(C2=NCC(CBr)S2)cc1 (centres undefined),inactive: -2%
26,CC(C)(C)C(=O)NC(Sc1ccccc1)C(Cl)(Cl)Cl (centres undefined),inactive: -1%
27,CC(=O)Nc1ccc(Oc2c([N+](=O)[O-])cc([N+](=O)[O-])cc2[N+](=O)[O-])cc1,inactive: 2%

row,SMILES,inhibition
1,CCNC(=S)/N=C(\N)N[N+](=O)[O-],inactive: 0%
2,O=C(NC1CCS(=O)(=O)C1)NP(=S)(Oc1ccccc1)Oc1ccccc1 (centres undefined),inactive: -5%
3,c1ccc(-c2nn[nH]n2)c(-c2nn[nH]n2)c1,inactive: 9%
4,CCOC(=O)NC(Sc1ccccc1)C(Cl)(Cl)Cl (centres undefined),inactive: 0%
5,COC(=O)c1cc2c(s1)N=C(c1ccccc1)N(C)P2(=O)N1CCOCC1 (centres undefined),inactive: -1%
6,CC(=O)NC(SC(=S)N(CC(C)C)CC(C)C)C(Cl)(Cl)Cl (centres undefined),inactive: -7%
7,Cc1ccc(OP(=O)(Nc2ccccn2)Oc2ccc(C)cc2)cc1,inactive: 0%
8,CCC(=O)N1C2C3N(C(=O)CC)C1C1N(C(=O)CC)C(C(N1C(=O)CC)N3C(=O)CC)N2C(=O)CC,inactive: 9%
9,O=c1c2cc([N+](=O)[O-])ccc2[nH]c2c([N+](=O)[O-])cc([N+](=O)[O-])cc12,inactive: -2%
10,O=P(Nc1ccccn1)(c1ccc(Br)cc1)c1ccc(Br)cc1,inactive: -3%
11,CC(=O)NC(SC(=S)N(C)C)C(Cl)(Cl)Cl (centres undefined),inactive: -10%
12,C(Cc1nn[nH]n1)Cc1nn[nH]n1,inactive: -5%
13,O=C(OC1CN2CCC1CC2)c1cccc(Cl)c1 (centres undefined),inactive: -2%
14,CC(C)C(=O)NC(Sc1ccccc1)C(Cl)(Cl)Cl (centres undefined),inactive: -8%
15,O=P(Nc1nccs1)(c1ccccc1)c1ccccc1,inactive: -2%
16,c1nnnn1CCn1cnnn1,inactive: -3%
17,O=P1(Nc2ccccn2)COc2ccccc2OC1,inactive: -1%
18,Clc1n[nH]nc1-c1nn[nH][15n]1,inactive: -10%
19,CC(C)/C=N\N=C(\N)N[N+](=O)[O-],inactive: -6%
20,CN(C(=O)Cc1ccc(Cl)c(Cl)c1)[C@@H]1CCCC[C@H]1N1CCCC1,inactive: 1%
21,Cc1nn(-c2ccccc2)c2c1P(=O)(N1CCOCC1)N(C)C(c1ccccc1)=N2 (centres undefined),inactive: -3%
22,CC1CCC(C(C)C)C(OP(=O)(Nc2ccccn2)c2ccccc2)C1 (centres undefined),inactive: -1%
23,CN(C)C1(CNC(=O)c2ccc(S(C)(=O)=O)cc2)CCCCC1,inactive: -2%
24,O=P1(Nc2ncccn2)COc2ccccc2OC1,inactive: -8%
25,O=P1(Nc2ccc(Br)cn2)COc2ccccc2OC1,inactive: -3%
26,Cc1ccc(OCC(=O)OC2CN3CCC2CC3)cc1 (centres undefined),inactive: 1%
27,CCOP1(=S)c2c(C)nn(CCC#N)c2N=C(c2ccccc2F)N1C (centres undefined),inactive: -5%

row,SMILES,inhibition
1,O=P(Nc1nccs1)(c1ccccc1)c1nc2ccccc2s1 (centres undefined),inactive: -5%
2,O=P(Nc1nccs1)(Oc1ccccc1)Oc1ccccc1,inactive: -1%
3,O=[N+]([O-])c1ccc2c(c1)nnn2O,inactive: 0%
4,CCOP1(=S)c2c(C)nn(CCC#N)c2N=C(c2ccc(F)cc2)N1C (centres undefined),inactive: -13%
5,COc1cc(C(=O)NCC2(N3CCOCC3)CCCCC2)cc(Cl)c1OC(C)C,inactive: -2%
6,Cc1cccc(OCC(=O)OC2CN3CCC2CC3)c1 (centres undefined),inactive: 2%
7,Cc1ccc(NCCc2c([N+](=O)[O-])cc([N+](=O)[O-])cc2[N+](=O)[O-])cc1,inactive: -5%
8,COc1cc(C2NCCC3(OCCO3)C2(C)C)cc(OC)c1OC (centres undefined),inactive: 1%
9,CCOP(=O)(Nc1cccc2ccccc12)OCC,inactive: -6%
10,O=C(OC1CN2CCC1CC2)C12CC3CC(CC(C3)C1)C2 (centres undefined),inactive: -5%
11,Cc1cc(=O)[nH]c(N[N+](=O)[O-])n1,inactive: -2%
12,Cc1c2c(nc3ccccc13)SC(C(Cl)Cl)C2 (centres undefined),inactive: -7%
13,COc1ccc2nc(NP(=O)(c3ccccc3)c3ccccc3)sc2c1,inactive: -2%
14,COc1ccc(N/C(=N/P(=O)(N2CCOCC2)N2CCOCC2)N2CCOCC2)cc1,inactive: -3%
15,Cc1ccc2nc3c(c(C)c2c1)CC(C(Cl)Cl)S3 (centres undefined),inactive: -9%
16,ClCCSc1nnc(-c2cccnc2)o1,inactive: -9%
17,CCN(CC)C(=S)SC(NC=O)C(Cl)(Cl)Cl (centres undefined),inactive: -2%
18,CC(C)NC(=O)NP(=O)(Oc1ccccc1)Oc1ccccc1,inactive: -2%
19,O=[N+]([O-])c1cc([N+](=O)[O-])c(-c2ccn[nH]2)s1,inactive: -8%
20,Cc1cc(SC(NC(=O)c2ccccc2)C(Cl)(Cl)Cl)nc(C(C)C)n1 (centres undefined),inactive: -10%
21,O=P(Nc1ccccn1)(c1cccc2ccccc12)c1cccc2ccccc12,inactive: -5%
22,Cc1cc(SC(NC=O)C(Cl)(Cl)Cl)ncn1 (centres undefined),inactive: -8%
23,COP1(=S)c2c(C)nn(CCC#N)c2N=C(c2ccc(F)cc2)N1C (centres undefined),inactive: -1%
24,O=C(COc1ccccc1)OC1CN2CCC1CC2 (centres undefined),inactive: 0%
25,CCC(C)N(CC(C)C)C(=S)SC(NC(C)=O)C(Cl)(Cl)Cl (centres undefined),inactive: -2%
